# Assay results from patent EP3632916B1, “MORPHINAN COMPOUNDS” (Concert Pharmaceuticals Inc., priority 2007, dated 2008).
# Key:
# [1] = Metabolic stability in cynomolgus monkey liver microsomes; conditions: 1µM of each compound, 0.5 mg/mL microsomes; compared with dextromethorphan; Figure 1
# Protocol: (§1) The objectives of this study were to determine the metabolic stability of the test compounds in pooled human and chimpanzee liver microsomal incubations. Samples of the test compounds, exposed to pooled human or chimp liver microsomes, were analyzed using HPLC-MS (or MS/MS) detection. For determining metabolic stability, multiple reaction monitoring (MRM) was used to measure the disappearance of the test compounds.
# (§2) Experimental Procedures: Human liver and Cynomolgus monkey liver microsomes were obtained from XenoTech, LLC (Lenexa, KS).
# (§3) Incubation of Test Compounds with Liver Microsomes: The reaction mixture, minus cofactors, was prepared. […] Another aliquot of the reaction mixture was prepared as the negative control. […] An aliquot of the reaction mixture was prepared as a blank control, by the addition of plain organic solvent (no test compound is added).
# (§4) All samples were analyzed using LC-MS (or MS/MS). An LC-MRM-MS/MS method is used for metabolic stability.
# [2] = Metabolic stability in human liver microsomes; conditions: 0.25µM of each compound, 2 mg/mL human liver microsomes; Figure 2
# Protocol: as §1, §2, §3, §4
# [3] = Urine levels in cynomolgus monkeys after oral administration with quinidine; conditions: at the same quinidine concentration, compared to dextromethorphan, Figure 6
# Protocol: (§5) The samples were used for the determination of plasma drug levels by LC/MS/MS for estimating pharmacokinetic parameters. This study was conducted in accordance with Shanghai Medicilon Inc. Standard Operating Procedures (SOPs). The Sponsor provided the test compounds and internal standard compound.
# (§6) The combination dose was prepared by mixing both by 1:1 to yield a concentration of 1 mg/mL for each compound. […] The doses were given BID orally with an interval of 12 hours. […] Dosing volume of Quinidine was determined based on the dose each animal was getting. Dose volumes for each test animal was determined based on individual body weight. Body weights were taken on each day of dose administration and were be recorded.
# (§7) Dilution using cynomolgus monkey plasma blank were applied if the sample concentration was over the ULOQ of calibration standard curve. The data acquisition and control system was created using Analyst 1.4 software from ABI Inc.
# [4] = monkeys
# Protocol: as §5, §6, §7
Compound,stability in monkey liver microsomes [1],remained intact after 30 minutes of incubation [2],urine levels of parent compound [3],"plasma levels ([4]; co administered with the same amount of quinidine, compared to dextromethorphan, Figure 5)","metabolism to deuterated dextrorphan isotopologues ([4]; plasma, without quinidine, relative to metabolism of dextromethorphan to dextrorphan, Figure 4)"
"[2H]C([2H])([2H])Oc1ccc2c(c1)[C@]13CCCC[C@@H]1[C@H](C2)N(C)CC3 [Reference compound 100, (+)-3-d3-methoxy-17-methyl-(9α,13α,14α)-morphinan]",greater stability than dextromethorphan,~42%,–,–,–
"COc1ccc2c(c1)[C@]13CCCC[C@@H]1[C@H](C2)N(C)CC3 [dextromethorphan, (+)-3-methoxy-17-methyl-(9α,13α,14α)-morphinan, reference compound]",–,about 33%,–,–,–
"[2H]C([2H])([2H])Oc1ccc2c(c1)[C@]13CCCC[C@@H]1[C@H](C2)N(C([2H])([2H])[2H])CC3 [Compound 101, (+)-3-d3-methoxy-17-d3-methyl-(9α,13α,14α)-morphinan]",greater stability than dextromethorphan,approximately 45%,less Compound 101 in the urine than dextromethorphan,greater than dextromethorphan plasma levels,reduced relative to metabolism of dextromethorphan to dextrorphan
